In patent US20010049374A1 (priority 1997, published 2001):
Where two headings read alike, the source gives them in different places.

Target: T1, urokinase enzyme Abbokinase (Homo sapiens, UniProt P00749)
T1 construct: purchased Abbott Laboratories, Abbott Park, Ill
Assay: Determination of urokinase inhibition (Abbokinase, chromogenic substrate S-2444)
Format: biochemical

[1] = Inhibitory potency against urokinase, substrate S-2444 at 200 μM, enzyme 2-3 nM, pH 7.4, 405 nm, read-out: IC50

Molecule	IC50 [1] [nM]	IC50 (IC50) [nM]	further results
COc1ccc2ccc(C(=N)N)cc2c1-c1cnn(S(C)(=O)=O)c1 [Example 87, 7-Methoxy-8-[1-(methylsulfonyl)-1H-4-pyrazolyl]-2-naphthalenecarboximidamide]		630	
COc1ccc2ccc(C(=N)N)cc2c1Nc1ccccc1 [Example 68, 7-Methoxy-8-(N-2-phenylamino)-2-naphthalenecarboximidamide]	1740		
N=C(N)c1ccc2cc(C#Cc3ccc4c(c3)CCNC4)ccc2c1 [Example 127, 6-[(1,2,3,4-tetrahydro-6-isoquinolinyl)ethynyl]-2-naphthalenecarboximidamide]		85	
N=C(N)c1ccc2cc(C3CC3c3ccccc3)ccc2c1 (centres unmarked) [Example 97, 6-(2-phenyl-1-cyclopropyl)-2-naphthalenecarboximidamide]		1310	
(±)6-(3-Phenyloxiranyl)-2-naphthalenecarboximidamide [Example 44]			IC50 (pH 7.4, read-out: IC50): 350 nM
[H]/N=C(/N)c1ccc2cc(C=Cc3ccc4c(c3)CCNC4)ccc2c1 [Example 112, (E)-6-[2-(1,2,3,4-tetrahydro-6-isoquinolinyl)ethenyl]-2-naphthalenecarboximidamide]		450	

Continued, in another order:

IC50 [1] [nM]	Molecule	IC50 (IC50) [nM]	further results
500	COc1ccc2ccc(C(=N)N)cc2c1OCC(N)=O [Example 4]		
2380	[H]/N=C(/N)c1ccc2cc(C=Cc3ccccc3)ccc2c1 [Example 41, (E)-6-[2-(Phenyl)ethenyl]-2-naphthalenecarboximidamide]		
